Measured values as given in PMC5419078 (mAbs, 2017).

How the values were obtained:
[1] = molecular target: T1, recombinant human soluble TNF (silkworm baculovirus expression system) (human, UniProt P01375 77-233); assay: AUC; FDS-SV, 25 nM Alexa Fluor 488-labeled antagonist with 0–25 nM TNF in PBS with 0.1 mg/mL lysozyme, incubated at 20°C for 2 hours, 42,000 rpm; details: both partners purified
T1 construct: tumor necrosis factor (TNF), human, recombinant soluble form; also called tumor necrosis factor; baculovirus-expressed TNF; source: silkworm baculovirus expression system (ProCube, Sysmex), purified

[2] = molecular target: T1, recombinant human soluble TNF (silkworm …); assay: AUC; FDS-SV, 25 nM Alexa Fluor 488-labeled antagonist with 0–25 nM TNF in human serum, incubated at 20°C for 2 hours, 42,000 rpm; HSA-bilirubin signal subtracted; details: both partners purified

stoichiometry N [1]: 1 etanercept per TNF trimer | fraction of etanercept uncomplexed at an equimolar ratio [2]: ~0.2 fraction
B1: Alexa Fluor 488-labeled etanercept (Fc fusion, human, UniProt P20333 23-257, looked up)
chain: LPAQVAFTPYAPEPGSTCRLREYYDQTAQMCCSKCSPGQHAKVFCTKTSDTVCDSCEDSTYTQLWNWVPECLSCGSRCSSDQVETQACTREQNRICTCRPGWYCALSKQEGCRLCAPLRKCRPGFGVARPGTETSDVVCKPCAPGTFSNTTSSTDICRPHQICNVVAIPGNASMDAVCTSTSPTRSMAPGAVHLPQPVSTRSQHTQPTPEPSTAPSTSFLLPMGPSPPAEGSTGD
modifications: Alexa Fluor 488 fluorescent dye (site not stated)
notes: Same chain as m4 with the fluorescent label; source: bought: Takeda Pharmaceutical Company Limited (Enbrel); labeled with Alexa Fluor 488, purified by SEC
